Literature values, collected in PMC5655689, “Therapeutic potential of the phosphino Cu(I) complex (HydroCuP) in the treatment of solid tumors” (Scientific Reports, 2017).

Test system: OXP-resistant Lovo cells
Conditions: cells obtained after 22 months of selection; cited from earlier work

## O=C1[O][Pt]2([NH][C@@H]3CCCC[C@H]3[NH]2)[O]C1=O [OXP, oxaliplatin]
  Fold resistance of OXP-resistant LoVo cells: about 17
